Assay results from PubChem BioAssay AID2650 (Broad Institute, 2010).
Only a part is listed here, and it is no random draw. Activity calls are given as the source filed them.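 How the source made its calls: active means more than half of replicates show inhibition above 20%; inconclusive means some but at most half of replicates above 20% inhibition; inactive means no replicate shows inhibition above 20%.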

Chains of the proteins cited; added tags and fusions are not shown.
UniProt P49840, whole entry: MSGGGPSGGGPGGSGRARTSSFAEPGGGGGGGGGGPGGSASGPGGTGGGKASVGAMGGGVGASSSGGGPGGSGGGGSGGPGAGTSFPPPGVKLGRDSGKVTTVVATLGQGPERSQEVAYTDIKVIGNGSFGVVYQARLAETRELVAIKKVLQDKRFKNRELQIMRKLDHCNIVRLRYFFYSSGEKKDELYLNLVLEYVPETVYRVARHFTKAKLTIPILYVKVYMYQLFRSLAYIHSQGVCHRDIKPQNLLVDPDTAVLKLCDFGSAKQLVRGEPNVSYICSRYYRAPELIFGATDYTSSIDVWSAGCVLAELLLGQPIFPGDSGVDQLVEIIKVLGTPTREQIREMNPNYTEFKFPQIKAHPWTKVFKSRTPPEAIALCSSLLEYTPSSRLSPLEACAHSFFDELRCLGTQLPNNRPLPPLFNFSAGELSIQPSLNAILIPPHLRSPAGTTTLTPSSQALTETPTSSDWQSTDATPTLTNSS

Target: Glycogen synthase kinase-3 alpha (Homo sapiens) (UniProt P49840)
Assay: blockers of GSK3A enzyme activity – biochemical, luminescence, cell-free homogeneous, HTS, primary screen (AID 2650);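 further: GST-tagged GSK-3 alpha with peptide substrate and 25 µM ATP; 0% = DMSO neutral wells and 100% = GW8510 positive control wells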
Details: GSK-3 alpha kinase, ADP-Glo luminescence, 60 min; at 10 µM; hits give high values

Row | SMILES | inhibition
1 | COc1ccc(NC2CCN(CCc3ccccc3)CC2)c(OC)c1 | inactive: -0.246%
2 | CCOC(=O)N1CCC(Nc2ccc(F)cc2)CC1 | inactive: -1.13%
3 | O=C(NCC1(N2CCCCC2)CCCCC1)c1ccc(F)cc1 | inactive: 0.124%
4 | CCOc1ccc(C)cc1CN(CCCl)CCCl | inactive: 4.88%
5 | Cc1ccc(OCC(C)C)c(CN(CCCl)CCCl)c1 | inactive: 1.45%
6 | CCOC(=O)N1CCC(Nc2cccc(C)c2)CC1 | inactive: 0.789%
7 | COc1cc(C(=O)NCC2(N(C)C)CCCCC2)ccc1OC(F)F | inactive: -2.29%
8 | CSc1ccccc1C(=O)NCC1(N2CCCCC2)CCCCC1 | inactive: -0.599%
9 | COc1ccc(C(=O)NCC2(N3CCCCC3)CCCCC2)c(OC)c1OC | inactive: -0.438%
10 | CC(C)(C)OC(=O)N1CCC(N(C(=O)c2ccccc2)c2ccc(F)cc2)CC1 | inactive: 0.246%
11 | COc1ccc(C(=O)NCC2(N3CCCCC3)CCCCC2)cc1 | inactive: -1.48%
12 | O=C(NCC1(N2CCCCC2)CCCCC1)c1cccs1 | inactive: -2.34%
13 | O=C(NCC1(N2CCCCC2)CCCCC1)c1ccc(=O)[nH]c1 | inactive: -0.83%
14 | COc1ccc(Cl)cc1C(=O)NCC1(N2CCOCC2)CCCCC1 | inactive: 3.77%
15 | N#CC1(Nc2ccccc2)CCN(Cc2ccccc2)CC1 | inactive: -1.23%
16 | O=C(NCC1(N2CCCCC2)CCCCC1)c1ccc(Cl)s1 | inactive: 1.89%
17 | O=C(OC1CN2CCC1CC2)C1c2ccccc2Oc2ccccc21 (stereo not given) | inactive: -3.41%
18 | Cc1cc(C)cc(N(C(=O)c2ccccc2)C2CCN(C(=O)OC(C)(C)C)CC2)c1 | inactive: -0.514%
19 | O=C(NCC1(N2CCCCC2)CCCCC1)c1ccc(Cl)nc1 | inactive: 12.5%
20 | O=C(NCC1(N2CCOCC2)CCCCC1)c1cc2ccccc2o1 | inactive: -1.37%
21 | O=C(NCC1(N2CCOCC2)CCCCC1)c1cc(F)c(F)cc1Cl | inactive: -5.71%
22 | COc1cc(OC)c(C(=O)NCC2(N(C)C)CCCCC2)cc1OC | inactive: -0.39%

Row | SMILES | inhibition
23 | CC(C)c1ccc(NC2CCN(C(=O)OC(C)(C)C)CC2)cc1 | inactive: -3.63%
24 | CN(C)c1cccc(C(=O)NCC2(N3CCCCC3)CCCCC2)c1 | inactive: -0.609%
25 | COc1ccc(CN(CCCl)CCCl)cc1Cl | inactive: 3.51%
26 | CCCOc1ccc(C(=O)NCC2(N(C)C)CCCCC2)cc1OC | inactive: -2.79%
27 | CN1CCC(Nc2cccc(F)c2)CC1 | inactive: -5.49%
28 | O=C(NCC1(N2CCCCC2)CCCCC1)c1cncc(Br)c1 | inactive: -0.986%
29 | N#CC1(Nc2ccccc2)CCN(CCc2ccccc2)CC1 | inactive: 0.613%
30 | CCN1CCC(Nc2ccc(Cl)cc2)CC1 | inactive: 1.33%
31 | O=C(NCC1(N2CCCCC2)CCCCC1)c1cccc([N+](=O)[O-])c1 | inactive: -2.41%
32 | O=C(NCC1(N2CCCCC2)CCCCC1)c1ccc(OC(F)F)cc1 | inactive: -1.47%
33 | COc1cc(C(=O)NCC2(N3CCCCC3)CCCCC2)ccc1OC(F)F | inactive: 2.62%
34 | O=C(NCC1(N2CCOCC2)CCCCC1)c1cc(=O)[nH]c2ccccc12 | inactive: 0.0504%
35 | CN1CCN(CCOC(=O)C(O)(c2ccccc2)c2ccccc2)CC1 | inactive: -2.49%
36 | COc1ccc(NC2CCN(C(=O)OC(C)(C)C)CC2)cc1 | inactive: -2.1%
37 | O=C(NCC1(N2CCCCC2)CCCCC1)c1cccc(C(F)(F)F)c1 | inactive: 2.61%
38 | N#Cc1ccc(C(=O)NCC2(N3CCCCC3)CCCCC2)cc1 | inactive: -0.621%
39 | CC(C)(C)OC(=O)N1CCC(N(C(=O)c2ccccc2)c2ccc(Cl)cc2)CC1 | inactive: -0.447%
40 | CN(C)C1(CNC(=O)c2cccc(C#N)c2)CCCCC1 | inactive: 4.37%
41 | CCCN1CCC(Nc2cc(OC)cc(OC)c2)CC1 | inactive: -2.62%
42 | c1ccc(CN2CCC(Nc3ccccc3)CC2)cc1 | inactive: -0.254%
43 | COc1ccc(C(=O)NCC2(N3CCOCC3)CCCCC2)cc1OC | inactive: -1.61%
44 | COc1cc(C(=O)NCC2(N3CCOCC3)CCCCC2)cc(OC)c1C | inactive: -0.48%

Row | SMILES | inhibition
45 | O=C(NCC1(N2CCOCC2)CCCCC1)c1cc(Br)ccc1Cl | inactive: 13.9%
46 | CCc1cc(C(=O)NCC2(N3CCCCC3)CCCCC2)sc1C | inactive: -0.472%
47 | O=C(OC1CN2CCC1CC2)C1c2ccccc2C=Cc2ccccc21 (stereo not given) | inactive: -2.12%
48 | CCOC(=O)N1CCC(Nc2ccc(C)cc2)CC1 | inactive: -1.23%
49 | N/C(=N\O)c1c(N)no[n+]1[O-] | inactive: -0.34%
50 | O=C(O)C1(Nc2ccccc2)CCN(Cc2ccccc2)CC1 | inactive: 2.15%
51 | CC(C)(C)OC(=O)N1CCC(Nc2ccccc2)CC1 | inactive: -2.6%
52 | CCCOc1ccc(C(=O)NCC2(N(C)C)CCCCC2)cc1 | inactive: -1.27%
53 | CN1CCC(Nc2ccc(F)c(Cl)c2)CC1 | inactive: -3.85%
54 | CCOc1ncccc1C(=O)NCC1(N2CCOCC2)CCCCC1 | inactive: 0.26%
55 | CN1CCC(Nc2ccc(Cl)cc2)CC1 | inactive: 0.819%
56 | CCCOc1ccc(C)cc1CN(CCCl)CCCl | inactive: 2.56%
57 | COc1cc(OC)cc(C(=O)NCC2(N3CCOCC3)CCCCC2)c1 | inactive: -1.4%
58 | COc1cccc(C(=O)N(c2cc(C)cc(C)c2)C2CCN(C(=O)OC(C)(C)C)CC2)c1 | inactive: 0.565%
59 | CCC(CO)(C(=O)OC1CN2CCC1CC2)c1ccccc1 (stereo not given) | inactive: -0.882%
60 | Fc1ccccc1NC1CCN(Cc2ccccc2)CC1 | inactive: 0.884%
61 | Cc1ccc(C(=O)NCC2(N3CCCCC3)CCCCC2)o1 | inactive: 0.88%
62 | COc1cc(OC)cc(C(=O)NCC2(N3CCCCC3)CCCCC2)c1 | inactive: 2.43%
63 | CN(C)c1ccc(C(=O)NCC2(N3CCCCC3)CCCCC2)cc1 | inactive: -3.94%
64 | O=C(NCC1(N2CCCCC2)CCCCC1)c1ccco1 | inactive: -1.28%
65 | CCN1CCC(Nc2cccc(F)c2)CC1 | inactive: 0.664%
